In patent EP2486923B1, “Histone deacetylase (HDAC) inhibiting compounds and method of making same” (Dr. Felix Jäger und Dr. Stefan Drinkuth Laborgemeinschaft …, priority 2011, dated 2012):

Molecular target: T1, HDAH (Alcaligenes sp., UniProt Q70I53)
T1 sequence (Q70I53 1-369): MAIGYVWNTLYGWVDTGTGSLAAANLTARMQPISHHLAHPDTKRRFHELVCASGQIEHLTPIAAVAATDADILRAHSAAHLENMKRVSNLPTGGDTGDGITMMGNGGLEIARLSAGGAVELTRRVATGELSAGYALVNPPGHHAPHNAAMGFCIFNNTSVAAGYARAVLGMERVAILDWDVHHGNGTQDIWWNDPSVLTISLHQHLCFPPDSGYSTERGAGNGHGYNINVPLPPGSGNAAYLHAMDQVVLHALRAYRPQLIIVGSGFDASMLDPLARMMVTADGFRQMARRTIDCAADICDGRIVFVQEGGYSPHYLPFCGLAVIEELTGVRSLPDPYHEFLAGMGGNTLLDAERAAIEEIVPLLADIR
Test: Two-step fluorescence assay for determination of IC50
Format: biochemical
Protocol: In order to evaluate the inhibitory characteristics of example compounds of the invention, IC50 values were determined for such compounds. The IC50 value is the half maximal (50%) inhibitory concentration (IC) of a substance (50% IC, or IC50), i.e. the concentration of a given compound that is necessary to inhibit a given biological process, e.g. an enzyme activity, by half. A two-step assay was used for this purpose.
To obtain the IC50 value for an individual compound/HDAC pair, a two-step assay can be performed based on a fluorescence signal. In principle, an ε-acetylated lysine substrate is deacetylated by histone-deacetylases in the first step. Trypsin releases detectable 7-amino-4-methylcoumarin (ex = excitation wavelength: 390 nm, em = emission wavelength: 460 nm) by cleaving the substrate at the deacetylated lysine in a subsequent reaction^[9]. The enzyme activity is inhibited by a suitable HDACi.
The obtained data are interpreted using a four parameter fit. Based on this fit, the IC50 value can be estimated. Analysis ot the data and calculation of the IC50 values was accomplished using a four-parameter logistic model protocol as previously described by Vølund^[16]. For nonlinear fits the Levenberg-Marquardt algorithm was applied^[17],[18]. […]. Table 1: IC50 values in µM for synthesized compounds of the invention with a perfluorinated linker. […]

## O=C(CCCCCCC(=O)Nc1ccccc1)NO [SAHA, Vorinostat, reference compound]
  IC50: 0.81 µM
